Measured values: BindingDB's records for doi:10.7270/Q2VT1QHF (Vanderbilt Screening Center For Gpcrs, Ion Channels and …, 2010)

Sequences of proteins named here, by UniProt entry; tags and fusion partners are left off. A change or cut given only in a name is not applied to a line headed by its entry.
UniProt Q14833: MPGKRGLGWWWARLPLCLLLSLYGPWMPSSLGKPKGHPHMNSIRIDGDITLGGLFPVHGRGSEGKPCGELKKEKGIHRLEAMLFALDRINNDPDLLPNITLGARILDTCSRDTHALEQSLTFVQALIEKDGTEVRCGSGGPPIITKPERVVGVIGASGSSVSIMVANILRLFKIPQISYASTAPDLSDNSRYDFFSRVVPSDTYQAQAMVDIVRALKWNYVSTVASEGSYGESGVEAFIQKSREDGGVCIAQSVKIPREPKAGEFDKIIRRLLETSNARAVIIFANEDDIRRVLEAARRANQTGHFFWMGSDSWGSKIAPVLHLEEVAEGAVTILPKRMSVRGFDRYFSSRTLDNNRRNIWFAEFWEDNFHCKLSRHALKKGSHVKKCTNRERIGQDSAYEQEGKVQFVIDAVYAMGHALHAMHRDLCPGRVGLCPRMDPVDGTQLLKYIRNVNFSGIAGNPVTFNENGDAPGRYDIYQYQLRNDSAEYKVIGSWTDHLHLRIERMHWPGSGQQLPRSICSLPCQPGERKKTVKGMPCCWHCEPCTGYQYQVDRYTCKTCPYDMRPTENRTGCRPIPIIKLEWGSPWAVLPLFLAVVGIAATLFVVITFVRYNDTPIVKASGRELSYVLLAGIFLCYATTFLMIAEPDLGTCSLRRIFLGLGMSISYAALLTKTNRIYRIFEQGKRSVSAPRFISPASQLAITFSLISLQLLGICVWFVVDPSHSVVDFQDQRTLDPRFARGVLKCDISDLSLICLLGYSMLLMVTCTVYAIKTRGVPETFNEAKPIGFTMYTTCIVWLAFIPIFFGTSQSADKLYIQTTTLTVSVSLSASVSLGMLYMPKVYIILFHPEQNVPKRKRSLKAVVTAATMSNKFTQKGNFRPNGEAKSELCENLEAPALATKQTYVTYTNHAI

Molecular target: Metabotropic glutamate receptor 4 (Homo sapiens, UniProt Q14833)
Experiment: PubChem AID 2197

CC1(C)c2c1c(O)n(-c1ccc(NC(=O)c3ccccn3)cc1Cl)c2O [N-[3-chloranyl-4-[(1S,5R)-6,6-dimethyl-2,4-bis(oxidanylidene)-3-azabicyclo[3.1.0]hexan-3-yl]phenyl]pyridine-2-carboxamide]
EC50: 473 nM

O=C(Nc1ccc(-n2c(O)cc(-c3ccccc3)c2O)c(Cl)c1)c1ccccn1 [N-[3-chloro-4-(2,5-dioxo-3-phenyl-1-pyrrolidinyl)phenyl]-2-pyridinecarboxamide]
EC50: 823 nM

O=C(Nc1ccc(-n2c(O)c3c(c2O)CCCC3)c(Cl)c1)c1ccccn1 [VU0366515-1]
EC50: 265 nM
